Test results from US20120100130A1, “Novel Receptor Hetero-Dimers/-Oligomers” (DIMERIX BIOSCIENCE PTY LTD., priority 2009, published 2012).

Tests used:
CXCR4-AT1R Heterodimer = CXCR4-AT1R Heterodimer (Homo sapiens, UniProt P30556+P61073); assay: eBRET beta-arrestin 2 recruitment, cells expressing CXCR4/Rluc8 and barr2/Venus with HA-AT1R; conditions: 10^−7M SDF1α; HEK293FT cells co-expressing CXCR4/Rluc8, barr2/Venus and HA-AT1R; 37 C
CCR5-AT1R Heterodimer = CCR5-AT1R Heterodimer (Homo sapiens, UniProt P30556+P51681); assay: eBRET beta-arrestin 2 recruitment, cells expressing CCR5/Rluc8 and barr2/Venus with HA-AT1R; assay type: cell-based; conditions: 10^−7M MIP1β; HEK293FT cells co-expressing CCR5/Rluc8, barr2/Venus and HA-AT1R; 37 C

## stromal-cell derived factor-1α [SDF1α]
CXCR4-AT1R Heterodimer
  transient eBRET signal peak (ligand-induced BRET ratio): about 0.01

B1: macrophage inflammatory protein 1beta (protein, UniProt P13236 24-92, looked up)
C-C motif chemokine 4: APMGSDPPTACCFSYTARKLPRNFVVDYYETSSLCSQPAVVFQTKRSKQVCADPSESWVQEYVYDLELN
notes: CC chemokine ligand 4, IG1 ligand of CCR5
CCR5-AT1R Heterodimer
  eBRET signal peak (ligand-induced BRET ratio): about 0.08
